Experimental data: publication PMC2139850

Biological target: tubulin (chicken (endogenous in avian marrow macrophages))
Assay: co-IP

- non-tubulin-bound c-src against tubulin-associated c-src (densitometry): 32 % less
Substance: pp60^c-src (from UniProt P00523 1-533) (enzyme)
